NRP1-CendR mod: NRP-1/CendR interaction modulation | O14786 | FAM-RPARPAR peptide binding to NRP-1, fluorescence polarization | hit rate 0.85% among 360,000 | inhibition, % at 25 µM;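 active means inhibition or corrected inhibition above about 18%, plus a signal ratio from 0.5 to 1.5, limit read from the data, passing the limit was not always enough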
ASAP1 GAP inh: ASAP1 ArfGAP inhibition; ASAP1-stimulated ARF1 GTP hydrolysis, GDP FP detection; inhibition, % at 16.5 µM; hit rate 0.19% among 360,000; AID 624377; in the data active means inhibition above about 25%
MC4R ag barr: agonists of human melanocortin 4 receptor (MC4R) beta-arrestin; P32245; U2OS MC4R beta-arrestin complementation, luminescence; percent of melanotan II response, DMSO zero; activation, % at 8.9 µM; hit rate 0.98% among 360,000; AID 540308;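 active means activation above a per-plate cutoff, the mean activation of sample wells on that plate plus 3 SD, cut at about 8% in these data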
ARFGAP1 inh: inhibits rat ARF GTPase activating protein 1. hit rate 0.26% among 360,000. inhibition, % at 16.5 µM. Arfgap1-stimulated ARF1 GTP hydrolysis, GDP FP detection;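 active means inhibition above a per-plate limit, mean inhibition of low control wells plus 3 SD, cut at about 25% in these data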
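system = rat Arfgap1 catalytic domain, aa 1-136 | technique = FP, GDP Alexa 633 tracer displaced from anti-GDP antibody, 620/688 nm | compound = one concentration, 16.5 µM, DMSO 1.26% | medium = HEPES-based buffer, pH 7.5 | timing = compound-enzyme preincubation 20 min, reaction 120 min, detection 60 min, 25 °C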
UUG fidelity: yeast start codon fidelity modulation | S. cerevisiae UUG-firefly luciferase reporter, luminescence/redox ratio | activity score, % at 18.7 µM | 0.13% of 350,000 active | AID 602363;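 active means replicate mean at a twofold rise or more, about +100% in these data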;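 further: firefly luciferase made from a UUG start codon reports start codon fidelity; reporter light over untreated wells divided by growth signal over untreated wells; some hits fall short of that in this replicate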
MC4R antagonist: human MC4R antagonism in cAMP assay; P32245; MC4R-expressing cells, MTII-stimulated cAMP, LANCE TR-FRET; inhibition, % at 6.5 µM; hit rate 0.48% among 360,000;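 active means inhibition above its plate's cutoff, the mean of tested wells on that plate plus 3 SD, cut at about 29% in these data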
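Assay system: U2OS cells stably expressing human melanocortin 4 receptor (MC4R) / Dosing: 6.5 µM / Timing: compound 30 min, challenge 1 h, detection 1 h / Measured by: Eu-cAMP/anti-cAMP TR-FRET, emission 671 nm / Replicates: singlicate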
MC4R barr ag: human MC4R beta-arrestin agonism confirmation; shares compounds with MC4R ag barr; U2OS MC4R beta-arrestin recruitment, luminescence; scaled DMSO 0%, Melanotan II 100%; activation, % at 8.9 µM; hit rate 31% among 2,400; AID 602192;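 active means mean activation across replicates above the hit cutoff set in the earlier primary screen, cut at about 8% in these data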
MOR DOR agonist: OPRM1-OPRD1 heterodimer agonism counter-screen | activation, % at 9.2 µM | U2OS PathHunter beta-arrestin, beta-gal luminescence; percent of deltorphin B response, DMSO zero | hit rate 5.8% among 2,400 | shares compounds with MC4R ag barr;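 active means mean activation across replicates exceeds the hit threshold derived in the earlier primary screen, cut at about 18% in these data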
Hits are given with their value. This is a sample that favours compounds with a hit; in the whole collection about 2.3% have one here.

For COc1cc(OC)cc(C(=O)NC(=S)Nc2ccc(NC(=O)c3ccco3)cc2)c1 the results were NRP1-CendR mod inactive, ASAP1 GAP inh inactive, MC4R ag barr 12, ARFGAP1 inh inactive, MC4R antagonist inactive, MC4R barr ag inactive and MOR DOR agonist inactive.
For COc1cc(NC(=O)c2cc3c(=O)n(C)c4ccccc4c3n2C)cc(OC)c1OC the results were NRP1-CendR mod inactive, ASAP1 GAP inh inactive, MC4R ag barr 31, ARFGAP1 inh inactive, UUG fidelity inactive, MC4R antagonist inactive, MC4R barr ag inactive and MOR DOR agonist inactive.
Screening C[C@@H]1CCCCO[C@@H](CN(C)C(=O)Nc2ccc3c(c2)OCO3)[C@@H](C)CN([C@H](C)CO)C(=O)c2cc(NC(=O)CCCN(C)C)ccc2O1 returned UUG fidelity inactive.
Screening CC(=O)c1sc(NC(=O)CCCOc2ccc(Cl)cc2)nc1C returned NRP1-CendR mod inactive, ASAP1 GAP inh inactive, MC4R ag barr 11, ARFGAP1 inh inactive, MC4R antagonist inactive, MC4R barr ag inactive and MOR DOR agonist inactive.
`Cc1ccc(C)c(C(=O)COC(=O)c2n[nH]c3ccccc23)c1` gave NRP1-CendR mod inactive, ASAP1 GAP inh inactive, MC4R ag barr 16, ARFGAP1 inh inactive, MC4R antagonist inactive, MC4R barr ag 16 and MOR DOR agonist inactive.
For C[C@H](CO)N1C[C@H](C)[C@H](CN(C)C(=O)Cc2ccncc2)Oc2cc(C#CC3CCCCC3)ccc2S1(=O)=O the results were UUG fidelity inactive.
For O=C(C[C@H]1CC[C@@H]2[C@H](COC[C@@H](O)CN2CC2CCOCC2)O1)NCC1CC1 the results were UUG fidelity inactive.
O=C(c1ccoc1)N1CCN(c2cc(-c3cccnc3)nc3cc(-c4cccc(Cl)c4)nn23)CC1 was read as NRP1-CendR mod inactive, ASAP1 GAP inh inactive, MC4R ag barr 11, ARFGAP1 inh inactive, UUG fidelity inactive, MC4R antagonist inactive, MC4R barr ag inactive and MOR DOR agonist inactive.
Screening O=C(c1ccoc1)N1CCN(c2cc(-c3ccccc3)nc3cc(-c4ccc(Br)cc4)nn23)CC1 returned NRP1-CendR mod inactive, ASAP1 GAP inh inactive, MC4R ag barr inactive, ARFGAP1 inh inactive, UUG fidelity inactive and MC4R antagonist inactive.
For COc1ccc(S(=O)(=O)N(C)C[C@H]2OCCCC[C@@H](C)Oc3ccc(N(C)C)cc3C(=O)N([C@@H](C)CO)C[C@H]2C)cc1 the results were UUG fidelity inactive.
Screening Cc1cc(C(C)(C)C)cc(C)c1Cn1c2[n+](c3ccc(C(F)(F)F)cc31)CCCCC2 returned NRP1-CendR mod inactive, ASAP1 GAP inh inactive, MC4R ag barr 17, ARFGAP1 inh inactive, MC4R antagonist inactive, MC4R barr ag 15 and MOR DOR agonist inactive.
For Cc1cccc(NC(=O)CSc2nc(COc3ccccc3)nc3ccccc23)c1C the results were NRP1-CendR mod inactive, ASAP1 GAP inh inactive, MC4R ag barr 20, ARFGAP1 inh inactive, MC4R antagonist inactive, MC4R barr ag inactive and MOR DOR agonist inactive.
For Cc1cccc(C)c1NC(=O)CSc1nc(COc2ccccc2)nc2ccccc12 the results were NRP1-CendR mod inactive, ASAP1 GAP inh inactive, MC4R ag barr inactive, ARFGAP1 inh inactive, UUG fidelity inactive and MC4R antagonist inactive.
For CCN(C(=O)c1cc2c(=O)[nH]c3ccc(C)cc3c2s1)c1ccc(F)cc1 the results were NRP1-CendR mod inactive, ASAP1 GAP inh inactive, MC4R ag barr 12, ARFGAP1 inh inactive, MC4R antagonist inactive, MC4R barr ag inactive and MOR DOR agonist inactive.
`CCN(C(=O)c1cc2c(=O)[nH]c3ccc(C)cc3c2s1)c1cccc(C)c1` gave NRP1-CendR mod inactive, ASAP1 GAP inh inactive, MC4R ag barr inactive, ARFGAP1 inh inactive, UUG fidelity inactive and MC4R antagonist inactive.
`Cc1cc(C)c(/C=N/NC(=O)c2nnn(-c3nonc3N)c2CN2CCC(C)CC2)c(C)c1` gave NRP1-CendR mod inactive, ASAP1 GAP inh inactive, MC4R ag barr 17, ARFGAP1 inh inactive, UUG fidelity inactive, MC4R antagonist inactive, MC4R barr ag 16 and MOR DOR agonist inactive.
For CC(C)c1c(C(=O)N/N=C/c2ccc(OCc3ccccc3)cc2)nnn1-c1nonc1N the results were NRP1-CendR mod inactive, ASAP1 GAP inh inactive, MC4R ag barr 14, ARFGAP1 inh inactive, UUG fidelity inactive, MC4R antagonist inactive, MC4R barr ag inactive and MOR DOR agonist inactive.
`Nc1nonc1-n1nnc(C(=O)N/N=C/c2ccc(OCc3ccccc3)cc2)c1CNc1ccccc1` gave NRP1-CendR mod inactive, ASAP1 GAP inh inactive, MC4R ag barr 25, ARFGAP1 inh inactive, UUG fidelity inactive, MC4R antagonist inactive, MC4R barr ag inactive and MOR DOR agonist inactive.
CCCc1c(C(=O)N/N=C/c2cccc3ccccc23)nnn1-c1nonc1N was read as NRP1-CendR mod inactive, ASAP1 GAP inh inactive, MC4R ag barr 17, ARFGAP1 inh inactive, UUG fidelity inactive, MC4R antagonist inactive, MC4R barr ag inactive and MOR DOR agonist inactive.
For CCN(CC)Cc1c(C(=O)N/N=C/c2cccc3ccccc23)nnn1-c1nonc1N the results were NRP1-CendR mod inactive, ASAP1 GAP inh inactive, MC4R ag barr inactive, ARFGAP1 inh inactive, UUG fidelity inactive and MC4R antagonist inactive.
COc1cc(/C=N/Nc2ccccc2[N+](=O)[O-])cc(OC)c1O was read as NRP1-CendR mod inactive, ASAP1 GAP inh inactive, MC4R ag barr 10.0, ARFGAP1 inh inactive, UUG fidelity inactive, MC4R antagonist inactive, MC4R barr ag inactive and MOR DOR agonist inactive.
CC(C)(C)c1ccc2c(c1)OC(C(=O)N/N=C\c1ccc[nH]1)CO2 (stereo unspecified) was read as NRP1-CendR mod inactive, ASAP1 GAP inh inactive, MC4R ag barr 11, ARFGAP1 inh inactive, UUG fidelity inactive, MC4R antagonist inactive, MC4R barr ag inactive and MOR DOR agonist inactive.
`CC(C)(C)c1ccc2c(c1)OC(C(=O)N/N=C\c1ccncc1)CO2` (stereo unspecified) gave NRP1-CendR mod inactive, ASAP1 GAP inh inactive, MC4R ag barr inactive, ARFGAP1 inh inactive, UUG fidelity inactive and MC4R antagonist inactive.
For O=C(Nc1cccc2nsnc12)c1ccc2c(c1)OCO2 the results were NRP1-CendR mod inactive, ASAP1 GAP inh inactive, MC4R ag barr inactive, ARFGAP1 inh inactive, UUG fidelity inactive and MC4R antagonist inactive.

Screening data (PubChem)
